Assay results taken from PMC3142112, “Rationally Designed Turn Promoting Mutation in the Amyloid-β Peptide Sequence Stabilizes Oligomers in Solution” (PLoS ONE, 2011).
In brackets after ≈: the same amount, converted by molar mass.

Details: pH 7.2

solubility when HFIP film was dissolved: ~1000 µg/mL (≈ 220 µM)
SMILES: CCCC[C@H](NC(=O)[C@H](CC(C)C)NC(=O)CNC(=O)[C@@H](NC(=O)[C@@H](NC(=O)[C@H](C)NC(=O)CNC(=O)[C@H](CCCCN)NC(=O)[C@H](CC(N)=O)NC(=O)[C@H](CO)NC(=O)CNC(=O)[C@@H](NC(=O)[C@H](CC(=O)O)NC(=O)[C@H](CCC(=O)O)NC(=O)[C@H](C)NC(=O)[C@H](Cc1ccccc1)NC(=O)[C@H](Cc1ccccc1)NC(=O)[C@@H](NC(=O)[C@H](CC(C)C)NC(=O)[C@H](CCCCN)NC(=O)[C@H](CCC(N)=O)NC(=O)[C@H](Cc1c[nH]cn1)NC(=O)[C@H](Cc1c[nH]cn1)NC(=O)[C@@H](NC(=O)[C@H](CCC(=O)O)NC(=O)[C@H](Cc1ccc(O)cc1)NC(=O)CNC(=O)[C@H](CO)NC(=O)[C@H](CC(=O)O)NC(=O)[C@H](Cc1c[nH]cn1)NC(=O)[C@H](CCCNC(=N)N)NC(=O)[C@H](Cc1ccccc1)NC(=O)[C@H](CCC(=O)O)NC(=O)[C@H](C)NC(=O)[C@@H](N)CC(=O)O)C(C)C)C(C)C)C(C)C)[C@@H](C)CC)[C@@H](C)CC)C(=O)N[C@H](C(=O)N1CCC[C@@H]1C(=O)NCC(=O)N[C@H](C(=O)N[C@H](C(=O)N[C@H](C(=O)N[C@@H](C)C(=O)O)[C@@H](C)CC)C(C)C)C(C)C)C(C)C [Aβ42Nle35p37]
